Yeast mating assay B: variants of the scFv Ab-14

Target: peptide PDVDLGDISGINAS, taken from heptad repeat 2 (HR2) of SARS-CoV-2 spike.

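The starting antibody came from a phage panning campaign against this peptide. This is the validation round: designs drawn from the data on random variants, tested in the same kind of assay. Group labels follow the data file (Ctrl: baseline library sampled from a position-specific scoring matrix, with some repeated check sequences; Rand: our label for a block that the file lists under HC and that is probably the random mutants of the ten best first-round binders; En: ensemble of fine-tuned language models; GP: Gaussian process model; GPLM: also part of the Gaussian process libraries; HC: hill climbing; Gen: genetic algorithm; Gibbs: Gibbs sampling; a sequence that several methods proposed may carry one label only). The assay is AlphaSeq: two haploid yeast populations carry antibody and antigen on their surface. Pairs that bind mate more often; barcode pairs of the diploids are counted by sequencing. Read counts were normalised to the haploid input and turned into Kd by a linear fit to BCL2-family pairs of known affinity, for each replicate. The assay was run in six technical replicates.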

Ab-14 is the parent antibody, in scFv form: VH, then the linker GGGGSGGGGSGGGGS, then VL. The light chain is unchanged in all variants.
VH: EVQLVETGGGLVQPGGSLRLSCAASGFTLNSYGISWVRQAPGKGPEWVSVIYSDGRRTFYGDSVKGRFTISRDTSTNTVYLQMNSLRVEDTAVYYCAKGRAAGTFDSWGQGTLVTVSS
VL: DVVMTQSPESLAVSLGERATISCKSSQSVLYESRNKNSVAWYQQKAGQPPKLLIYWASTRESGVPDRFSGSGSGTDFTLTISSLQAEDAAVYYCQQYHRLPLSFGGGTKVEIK

Variants are written as CDR1, CDR2 and CDR3 of the heavy chain (limits as in the source). Parent: GFTLNSYGIS, VIYSDGRRTFYGDSVK, GRAAGTFDS. Affinities are written as log10 Kd with Kd in nM; a lower number is a better binder. The mean shown is taken over the replicates in which the pair was detected. A pair that was not seen in any replicate is written "not detected"; this usually means weak binding, but a binder can also be missed. The authors' rule: three or more of the six replicates give a measured affinity, fewer mean a poor binder. The range of this assay differs from that of the first round, and the authors advise against merging the two. Background: pairings of all heavy chain designs with three empty control strains gave a value in 1% of cases (median 2.08, 5th percentile 0.84). Values in that range, when seen in few replicates, are hard to tell from nonspecific mating. Also given: how often the same scFv was detected with the empty control strains.

CDR-H1	CDR-H2	CDR-H3	group	log10 Kd (nM), mean	replicates with signal	control signals
GINLEEYGVS	VIYADGRRTAYTDSVK	GGNSVMTGV	En_Gibbs	not detected	0 of 6	0 of 18
GFSLNEYGIS	VIYSDGRRTFYHDWVK	GRTAGTFDS	GP_Gibbs	1.02	5 of 6	0 of 18
GFDLEEFGVS	VIYADGKRAAYTESVK	GHEGAHFTV	En_Gibbs	2.22	1 of 6	0 of 18
GFDLNEYGIS	VIYADGMRTFYTDSVK	GENAGTFDV	En_Gen	-0.39	6 of 6	0 of 18
GFCLNEYGIS	VIYSDGRRTFYADSVK	GRAAGTFDS	Ctrl	1.16	5 of 6	0 of 18
GFDLEEYGIS	VIYADGMRQVYAHSVK	GHYGLGKVG	En_Gibbs	not detected	0 of 6	0 of 18
GFTLDSYGIS	VIYSDGRRTFYIDSVK	GRAAGTFMS	GP_HC	2.19	1 of 6	0 of 18
GFTLNEYGIS	VIYSDGRRTFYTDAVK	GRTAGTFDS	GPLM_HC	0.63	5 of 6	0 of 18
GFDLNEYGIS	VIYADGMRTAYSDDVK	GTNAGTFDI	En_Gen	-0.35	6 of 6	0 of 18
GFDLDEYGIS	VIYADGMRTAYSDKVK	GQNAGTFDV	En_Gen	-0.56	6 of 6	0 of 18
GFTLESYGIS	VIYADGRRTFYGDSVK	GRAAGTFDR	GPLM_Gen	not detected	0 of 6	0 of 18
GFTLNSYGIS	VCYADGRRTFYGDSVK	GRAAGTNKS	Rand	0.50	6 of 6	0 of 18
GFELNSYGIS	VIYSDGRRTQYGDSVK	GRAAGTFDS	Ctrl	not detected	0 of 6	0 of 18
GFTLNEYGIS	VIYSDGRRTFYTDSVK	GRTAGTFFS	GPLM_HC	2.08	1 of 6	0 of 18
GFTLNDYGIS	VIYSDGRRTWYIDSVK	GRAAGTFWS	GP_HC	not detected	0 of 6	0 of 18
GFDLNEYGIS	VIYADGRRTAYIDSVK	GEAAGTFDI	En_HC	-0.28	6 of 6	0 of 18
GQKLNSYGIS	VIYSDGRRTFYGDSVK	GRNAGTTDS	Ctrl	not detected	0 of 6	0 of 18
GFSLNEYGIS	VIYSDGRRTFYGDSVK	GRAAQTFDS	Ctrl	not detected	0 of 6	0 of 18
GFELNEYGIS	VIYSDGRRTFYGDSVK	GNAAGTFDS	GP_Gen	0.81	6 of 6	0 of 18
GFTLNSYGIS	VDYSDGRRTFYSDSVK	SRAAGTFDS	Ctrl	not detected	0 of 6	0 of 18
GFELNEYGIS	VIYSDGRRTFYGDGVK	GQAAGTFDK	GP_Gibbs	not detected	0 of 6	0 of 18
GFDLNEYGVS	VIYADGQRRAYAANFK	GVNIGGLDI	En_Gibbs	not detected	0 of 6	0 of 18
GFDLNEYGIS	VIYADGRRTSYKDSVK	GETAGTFNV	En_HC	-1.03	2 of 6	0 of 18
GFDLAEYGVS	VIYADGKRTEYSDHVK	GENAGFFDL	En_Gibbs	not detected	0 of 6	0 of 18
GFDLNEYGIS	VIYADGRRTFYSDSVK	GEVAGTFDT	En_HC	-0.04	6 of 6	1 of 18
GFGLNEYGIS	VIYSDGRRTFYHDSVK	GNAAGTFDS	GP_Gen	0.07	6 of 6	0 of 18
GFTLDDYGIS	VIYSDGRRTFYGDSVK	GRAAGTFDQ	Ctrl	1.29	6 of 6	0 of 18
GFTLNQYGIS	VIYSDGRRTFYADSVK	GRLAGTFDS	GPLM_HC	0.39	6 of 6	0 of 18
GFTLNDYGIS	VIYSDGRRTFYGDSVK	GRAAGTFFI	GP_HC	not detected	0 of 6	0 of 18
GFTLNQYGIS	VIYSDGRRTFYGDSVK	GRAAGTFDS	Ctrl	0.93	6 of 6	0 of 18
EFDLNNYGIS	VIYADGLRTAYETSFK	GINAGTFTS	En_Gibbs	1.93	2 of 6	1 of 18
GFDLEDYGIS	VIYADGKRKAYAQKFK	GRIGGTFGD	En_Gibbs	0.27	6 of 6	0 of 18
GFDINEYGIS	VIYADGMRTAYDNSVK	GQMAGFFIN	En_Gibbs	not detected	0 of 6	0 of 18
GFDLNSYGIS	VIYSDGRRCFYGDSVK	GRTAGTFDS	GP_Gen	0.92	5 of 6	3 of 18
GFDLNSYGIS	VIYSDGRRTFYADSVK	GRAAGTFDQ	GPLM_Gen	0.52	5 of 6	0 of 18
GFDLNEYGIS	VIYADGRRTFYVDSVK	GVHAGTFDV	En_HC	-0.53	6 of 6	0 of 18
GFDLNEYGIS	VIYADGVRTFYTDSVK	GEVAGTFDV	En_HC	-0.26	6 of 6	0 of 18
GMNLDEYGIS	VIYADGMRNAYRDTVK	GAHSGGLVT	En_Gibbs	not detected	0 of 6	1 of 18
GFTLNDYSIS	VIYSDGRRTFYTDSVK	GTTAGTFDS	Ctrl	not detected	0 of 6	0 of 18
GFTLNSYGIS	VIYSDGRRTFYIDSVK	GRVAGTFDK	GP_Gibbs	not detected	0 of 6	0 of 18
GEDLQEYGIS	VIYADGLRTAYSDNFK	GHLGGQFDM	En_Gibbs	1.58	1 of 6	0 of 18
GFSLNSYGIS	VIYSDGQRTFYADSVK	GRTAGTFDS	GPLM_Gen	-0.19	6 of 6	0 of 18
GFTLNEYGIS	VIYSDGRRTFYGDSVK	GRAAATFDQ	GPLM_HC	not detected	0 of 6	0 of 18
PFDLNSYGIS	VIYSDGRRTFYVDSVK	GRQAGTFDS	GP_Gen	2.50	3 of 6	0 of 18
GFELNSYGIS	VIYSDGKRTFYTDSVK	GRTAGTFDS	GP_Gibbs	-0.19	6 of 6	0 of 18
GFTLNEYGIS	VIYSDGRRTFYTDRVK	GEAAGTFDS	GP_HC	0.92	6 of 6	0 of 18
GFDLNEYGIS	VIYADGKRTAYTDSVK	GANAGTFDV	En_Gen	-0.41	6 of 6	1 of 18
GFTLNDYGIS	VIYSDGRRTFYGDSVK	GRMAGTFFS	GPLM_HC	1.50	5 of 6	0 of 18
GFTLNSYGIS	VIYSDGRRTMYVDSVK	CRADGTFDS	Ctrl	2.08	1 of 6	1 of 18
GFSLNEYGIS	VIYSDGRRTFYEDDVK	GRFAGTFDS	GP_HC	0.67	6 of 6	0 of 18
GFDLNEYGIS	VIYSDGRRTFYGDSVK	GREAGTFDT	GP_Gen	-0.04	6 of 6	0 of 18
GFILNSYGIS	VIYSDGRRTFYDDSVK	GKLAGTFDS	GP_HC	1.40	6 of 6	0 of 18
GFDLDEYGIS	VIYADGKRTAYADSVK	GETAGTFDM	En_Gen	-0.45	6 of 6	0 of 18
GFELNMYGIS	VIYSDGRRTFYADSVK	GKTAGTFDS	GP_Gibbs	0.09	6 of 6	0 of 18
GFDLNEYGIS	VIYSDGRRTFYGDSVK	GTAAGTFDS	GP_Gen	-0.25	6 of 6	0 of 18
GFTLNSYGIS	VIYSDGRRWFYDDSVK	GQLAGTDDS	Rand	not detected	0 of 6	0 of 18
GFNINEYGIS	VIYSDGRRTFYGDSVK	GRAAGTFDS	Ctrl	0.48	6 of 6	0 of 18
GKSLNSYGIS	VIYSDGRRTFYTDSVK	GRTAGTFDS	GP_Gibbs	1.35	6 of 6	0 of 18
GFNLNEYGIS	VIYADGVRSFYSDSVK	GEAAGTFDV	En_HC	-0.43	6 of 6	1 of 18
GFTINDYGIS	VIYSDGRRTFYSDSVK	GRAAGTFHS	Ctrl	not detected	0 of 6	0 of 18
GFDLNEYGIS	VIYADGMRTVYSDSVK	GENAGTFDV	En_Gen	-0.16	6 of 6	0 of 18
GFTLNSYGIS	VIYSDGRRTFYQDSVK	GQLAGTFDS	GPLM_HC	2.05	6 of 6	1 of 18
GFTLNSYGIS	VIYSDGRRTFYGDSVK	GRAHATSDS	Ctrl	1.80	1 of 6	0 of 18
GFSLNEYGIS	VIYSDGKRTFYGDSVK	GRTAGTFDS	GPLM_Gibbs	-0.56	6 of 6	0 of 18
GFDLDEYGIS	VIYADGQRTAYADSVK	GENAGTFDT	En_Gen	-0.20	6 of 6	0 of 18
GFTLDQYGIS	VIYSDGRRTFYGDSVK	HNIAGTSDS	Ctrl	not detected	0 of 6	0 of 18
GFVLNEYGIS	VIYSDGRRTFYHDSVK	GRTAGTFDS	GP_Gen	0.44	6 of 6	0 of 18
GFELNSYGIS	VIYSDGRRTFYSDSVK	GRQAGTFDS	GPLM_Gibbs	0.13	6 of 6	0 of 18
GFWLNEYGIS	VIYSDGRRTFYGDSVK	GRTAGTFDC	GP_Gen	1.07	6 of 6	0 of 18
GFDLDEYGIS	VIYADGMRTAYTDSVK	GANAGTFDI	En_Gen	0.21	6 of 6	0 of 18
GFVLNSYGIS	VIYADGRRTFYGDSVK	GKAAGTFDS	GPLM_Gen	1.32	5 of 6	0 of 18
GFSLNEYGIS	VIYSDGRRTFYADSVK	GRAAGTFDF	GPLM_Gen	-0.21	6 of 6	0 of 18
GFNLNEYGIS	VIYADGRRTFYADSVK	GEIAGTFDQ	En_HC	-0.27	6 of 6	0 of 18
GFDLNEYGIS	VIYADGQRTAYIDSVK	GNVAGTFDQ	En_Gen	-0.26	6 of 6	1 of 18
GFSLNDYGIS	VIYSDGRRTFYSDSVK	GEAAGTFDS	GPLM_HC	1.03	6 of 6	1 of 18
GFTLDSYGIS	VIYSDGKRTFYGDSVK	GRAAGTFDQ	GP_HC	1.57	6 of 6	0 of 18
GFWLNDYGIS	VIYSDGRRTWYGDSVK	GRAAGTFDS	GP_HC	1.13	1 of 6	0 of 18
GFDLDEYGIS	VIYADGRRTAYADSVK	GNQAGTFDT	En_Gen	-0.29	6 of 6	0 of 18
GFDLNSFGIS	VIYSDGRRTFYLDSVK	GQTAGTFDS	GP_HC	1.30	5 of 6	1 of 18
GFTLNSYGIS	VIYSDGMRTYYGDSVK	GRAAGTFDS	Ctrl	1.70	3 of 6	0 of 18

Again, the first 7 entries without any signal:

| CDR-H1 | CDR-H2 | CDR-H3 | group | log10 Kd (nM), mean | replicates with signal | control signals |
|---|---|---|---|---|---|---|
| GINLEEYGVS | VIYADGRRTAYTDSVK | GGNSVMTGV | En_Gibbs | not detected | 0 of 6 | 0 of 18 |
| GFDLEEYGIS | VIYADGMRQVYAHSVK | GHYGLGKVG | En_Gibbs | not detected | 0 of 6 | 0 of 18 |
| GFTLESYGIS | VIYADGRRTFYGDSVK | GRAAGTFDR | GPLM_Gen | not detected | 0 of 6 | 0 of 18 |
| GFELNSYGIS | VIYSDGRRTQYGDSVK | GRAAGTFDS | Ctrl | not detected | 0 of 6 | 0 of 18 |
| GFTLNDYGIS | VIYSDGRRTWYIDSVK | GRAAGTFWS | GP_HC | not detected | 0 of 6 | 0 of 18 |
| GQKLNSYGIS | VIYSDGRRTFYGDSVK | GRNAGTTDS | Ctrl | not detected | 0 of 6 | 0 of 18 |
| GFSLNEYGIS | VIYSDGRRTFYGDSVK | GRAAQTFDS | Ctrl | not detected | 0 of 6 | 0 of 18 |

From the AlphaSeq antibody data of Li et al. 2023 (doi:10.1038/s41467-023-39022-2), copy in the FLAb collection.